# Activity calls are given as the source filed them. The rule behind the calls is not given here.
# What was measured:
# MCF7 [1] = test: Induction of cell cycle arrest in human MCF7 cells assessed as increase in G2/M phase cells at […] incubated for 72 hrs by PI staining based flow cytometric analysis; assay type: functional; settings: dose 2.5 µM
# MCF7 [2] = test: Induction of cell cycle arrest in human MCF7 cells assessed as increase in G2/M phase cells at […] incubated for 48 hrs by PI staining based flow cytometric analysis; assay type: functional; settings: dose 2.5 µM
# MCF7 [3] = test: Induction of apoptosis in human MCF7 cells assessed as increase in late apoptotic cells incubated for 72 hrs by Annexin V-PE/7-AAD staining based flow cytometric analysis; assay type: functional, cell-based; settings: dose 2.5-10 µM
# Mitochondrial membrane [4] = test: Induction of mitochondrial membrane potential loss in human MCF7 cells assessed as increase in JC-1 cytoplasmic monomers incubated for 48 hrs by JC-1 staining based flow cytometric analysis; assay type: cell membranes; settings: dose 2.5-10 µM
# MCF7 [5] = test: Induction of apoptosis in human MCF7 cells assessed as increase in early apoptotic cells incubated for 72 hrs by Annexin V-PE/7-AAD staining based flow cytometric analysis; assay type: functional, cell-based; settings: dose 2.5-10 µM
# MCF7 [6] = test: Effect on total ERK level in human MCF7 cells at 2.5 to 10 uM incubated for 24 hrs by Alphascreen assay; assay type: functional, cell-based; settings: dose 2.5-10 µM
# Mitochondrial membrane [7] = test: Induction of mitochondrial membrane potential loss in human MCF7 cells at 10 uM incubated for 48 hrs by JC-1 staining based flow cytometric analysis relative to control; assay type: cell membranes
# MCF7 [8] = test: Induction of cell cycle arrest in human MCF7 cells assessed as increase in S phase cells at 5 uM preincubated with U0126 for 1 hrs followed by compound addition and measured after 48 hrs by PI staining based flow cytometric analysis; assay type: functional
# Mitochondrial membrane [9] = test: Induction of mitochondrial membrane potential loss in human MCF7 cells assessed as decrease in JC-1 aggregates incubated for 48 hrs by JC-1 staining based flow cytometric analysis; assay type: cell membranes; settings: dose 2.5-10 µM
# MCF7 [10] = test: Induction of ERK phosphorylation at Thr202/Tyr204 residue in human MCF7 cells incubated for 24 hrs by Alphascreen assay; assay type: cell-based; settings: filed as activator, dose 2.5-10 µM
# MCF7 [11] = test: Induction of cell cycle arrest in human MCF7 cells assessed as increase in sub-G1 phase cells at 10 uM incubated for 48 hrs by PI staining based flow cytometric analysis; assay type: functional
# MCF7 [12] = test: Induction of ERK phosphorylation at Thr202/Tyr204 residue in human MCF7 cells at 10 uM preincubated with U0126 for 1 hrs followed by compound addition and incubated for 24 hrs by Alphascreen assay; assay type: cell-based
# MCF7 [13] = test: Induction of cell cycle arrest in human MCF7 cells assessed as increase in S phase cells at 5 uM incubated for 48 hrs by PI staining based flow cytometric analysis; assay type: functional
# MCF7 [14] = test: Induction of cell cycle arrest in human MCF7 cells assessed as increase in sub-G1 phase cells at 10 uM incubated for 72 hrs by PI staining based flow cytometric analysis; assay type: functional
# MCF7 [15] = test: Induction of cell cycle arrest in human MCF7 cells assessed as increase in S phase cells at 5 uM incubated for 72 hrs by PI staining based flow cytometric analysis; assay type: functional
# MCF7 [16] = test: Induction of apoptosis in human MCF7 cells assessed as increase in caspase activity preincubated for 48 hrs followed by carboxyfluorescein-labeled fluoro-methyl ketone peptide addition and measured after 1 hrs by fluorescence based analysis; assay type: functional, cell-based; settings: dose 2.5-10 µM
Structure (SMILES),Activity (MCF7 [1]),Activity (MCF7 [2]),Activity (MCF7 [3]),Activity (Mitochondrial membrane [4]),Activity (MCF7 [5]),Activity (MCF7 [6]),Activity (Mitochondrial membrane [7]) [%],Activity (MCF7 [8]),Activity (Mitochondrial membrane [9]),Activity (MCF7 [10]),Activity (MCF7 [11]),Activity (MCF7 [12]),Activity (MCF7 [13]),Activity (MCF7 [14]),Activity (MCF7 [15]),Activity (MCF7 [16])
NS(=O)(=O)c1cc(C(=O)N/N=C/c2ccc(Br)cc2O)c(SCc2ccccc2)cc1Cl,Active; Lower Increase Observed,Active,Dose-dependent-effect,Dose-dependent-effect,Dose-dependent-effect,inactive,40,inactive,Dose-dependent-effect,Dose-dependent-effect,Active; Indication Of Possible Transition To Apoptosis,inactive,Active,Active; Higher Increase Observed,Active; Lower Increase Observed,Dose-dependent-effect
NS(=O)(=O)c1cc(C(=O)N/N=C/c2ccc(Br)cc2O)c(SCc2ccc(F)cc2)cc1Cl,Active; Lower Increase Observed,Active,Dose-dependent-effect,Dose-dependent-effect,Dose-dependent-effect,inactive,30,inactive,Dose-dependent-effect,Dose-dependent-effect,Active; Indication Of Possible Transition To Apoptosis,inactive,Active,Active; Higher Increase Observed,Active; Lower Increase Observed,Dose-dependent-effect

# From ChEMBL document CHEMBL6092197, “Novel benzenesulfonamide-aroylhydrazone conjugates as carbonic anhydrase inhibitors that induce MAPK/ERK-mediated cell cycle arrest and mitochondrial-associated apoptosis in MCF-7 breast cancer cells” (Bioorg Med Chem, 2024)
